Values quoted from earlier work in patent US20110182943A1, “METHODS OF IMMUNE OR HEMATOLOGICAL ENHANCEMENT, INHIBITING TUMOUR FORMATION OR GROWTH, AND TREATING OR PREVENTING CANCER, CANCER SYMPTOMS, OR THE SYMPTOMS OF CANCER TREATMENTS” (FONTERRA CO-OPERATIVE GROUP LIMITED, priority 2007, published 2011).

Details: cited from earlier work

Q: With vitamin D as the substance, how does the “safety of daily intake” value (daily intakes of 10,000 IU in humans (in the absence of sunshine)) read?
A: safe

Q: And the “daily ingestion after which most cases of vitamin D toxicity have been reported” value (for several years)?
A: greater than 50,000 IU daily
